Here are results for one molecule from article PMC10244169, “Psychedelics promote plasticity by directly binding to BDNF receptor TrkB” (Nature Neuroscience, 2023).

Chains of the proteins cited; added tags and fusions are not shown. Residues count along the entry.
UniProt Q63604, 32-821: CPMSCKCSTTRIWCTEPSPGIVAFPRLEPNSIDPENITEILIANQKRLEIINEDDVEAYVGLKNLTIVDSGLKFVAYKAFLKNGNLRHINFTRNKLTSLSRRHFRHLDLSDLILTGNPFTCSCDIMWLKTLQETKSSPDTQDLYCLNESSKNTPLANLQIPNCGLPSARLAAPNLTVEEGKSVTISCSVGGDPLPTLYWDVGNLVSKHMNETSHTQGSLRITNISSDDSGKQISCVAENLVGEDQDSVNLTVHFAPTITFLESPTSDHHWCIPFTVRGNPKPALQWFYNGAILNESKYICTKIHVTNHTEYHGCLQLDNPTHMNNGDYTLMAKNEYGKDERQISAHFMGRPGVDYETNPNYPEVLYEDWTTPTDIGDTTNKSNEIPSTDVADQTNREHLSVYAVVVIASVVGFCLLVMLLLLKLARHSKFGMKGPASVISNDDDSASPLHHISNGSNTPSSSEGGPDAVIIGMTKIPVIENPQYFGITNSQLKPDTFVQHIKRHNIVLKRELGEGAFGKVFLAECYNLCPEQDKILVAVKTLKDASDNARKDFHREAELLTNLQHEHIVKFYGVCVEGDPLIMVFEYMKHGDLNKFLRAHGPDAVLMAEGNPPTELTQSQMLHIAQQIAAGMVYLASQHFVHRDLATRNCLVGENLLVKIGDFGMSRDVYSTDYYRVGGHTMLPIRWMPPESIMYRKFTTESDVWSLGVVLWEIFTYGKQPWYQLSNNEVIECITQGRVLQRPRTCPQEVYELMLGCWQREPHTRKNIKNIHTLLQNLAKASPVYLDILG

This assay deals with T1, TrkB (Rattus norvegicus, UniProt Q63604).
T1 construct: expressed in transfected cells; host or cells: HEK293T
In kind it is binding. The conditions noted are these: competition with ^3H-LSD.

Take `CNCCC(Oc1ccc(C(F)(F)F)cc1)c1ccccc1` (centres unmarked) [fluoxetine]: the “Bmax (best-fit, 1b)” value was found to be 88.95 and the “h (best-fit, 1b)” value is on record as -0.8265.
